Experiments:
[1] = target: Delta-type opioid receptor (Homo sapiens) (UniProt P41143)
[2] = target: Kappa-type opioid receptor (Homo sapiens) (UniProt P41145)
[3] = target: Mu-type opioid receptor (Homo sapiens) (UniProt P35372)

The chains behind the UniProt entries cited, without tags or fusion partners. Where a name states a change or a piece, a line headed by the entry shows the natural chain unless it says otherwise.
UniProt P41143, whole entry: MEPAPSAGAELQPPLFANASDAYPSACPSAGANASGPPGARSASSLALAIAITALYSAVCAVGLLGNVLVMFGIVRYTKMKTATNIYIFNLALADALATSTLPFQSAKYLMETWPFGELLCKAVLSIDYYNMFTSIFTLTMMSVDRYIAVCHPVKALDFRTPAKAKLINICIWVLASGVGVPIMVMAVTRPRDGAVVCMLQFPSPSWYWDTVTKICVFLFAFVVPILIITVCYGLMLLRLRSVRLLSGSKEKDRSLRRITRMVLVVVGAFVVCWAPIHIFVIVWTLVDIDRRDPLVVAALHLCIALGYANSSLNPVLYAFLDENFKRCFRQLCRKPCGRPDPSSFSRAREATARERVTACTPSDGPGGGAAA
UniProt P41145: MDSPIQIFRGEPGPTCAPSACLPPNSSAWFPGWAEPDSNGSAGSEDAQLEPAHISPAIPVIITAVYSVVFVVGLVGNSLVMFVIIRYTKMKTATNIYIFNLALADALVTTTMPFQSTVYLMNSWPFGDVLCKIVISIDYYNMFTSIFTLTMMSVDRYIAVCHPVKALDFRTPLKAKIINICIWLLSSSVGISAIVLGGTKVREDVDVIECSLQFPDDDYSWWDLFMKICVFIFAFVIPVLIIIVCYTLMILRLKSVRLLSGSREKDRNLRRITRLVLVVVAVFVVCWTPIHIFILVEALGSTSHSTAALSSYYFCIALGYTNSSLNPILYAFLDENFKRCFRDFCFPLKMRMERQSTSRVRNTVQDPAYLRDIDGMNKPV
UniProt P35372, whole entry: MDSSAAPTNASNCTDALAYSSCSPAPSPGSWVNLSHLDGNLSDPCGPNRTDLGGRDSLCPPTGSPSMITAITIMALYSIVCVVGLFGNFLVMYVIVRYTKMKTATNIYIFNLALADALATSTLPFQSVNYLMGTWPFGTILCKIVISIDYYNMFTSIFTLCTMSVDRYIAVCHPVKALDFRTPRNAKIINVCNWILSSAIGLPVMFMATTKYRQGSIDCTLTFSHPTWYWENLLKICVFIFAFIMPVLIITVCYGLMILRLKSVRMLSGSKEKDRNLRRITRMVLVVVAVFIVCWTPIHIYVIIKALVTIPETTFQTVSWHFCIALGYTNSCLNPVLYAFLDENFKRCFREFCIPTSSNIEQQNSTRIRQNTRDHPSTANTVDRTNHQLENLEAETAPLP

Structure (SMILES)	Ke [1] [nM]	Ke [2] [nM]	Ke [3] [nM]
CC(C)[C@@H](CN1CCC(c2cccc(F)c2)CC1)NC(=O)[C@H]1Cc2ccc(O)cc2CN1	128	–	–
CC(C)[C@@H](CN1CCC(C)(c2cccc(F)c2)CC1)NC(=O)[C@H]1Cc2ccc(O)cc2CN1	1480	–	–
CC(C)[C@@H](CN1CC[C@@](C)(c2ccccc2)[C@@H](C)C1)NC(=O)[C@H]1Cc2ccc(O)cc2CN1	442	0.024	8.9
